Earlier results as cited in US7825126B2 (The United States of America as represented by the …, priority 2004, dated 2010).

Amino acid sequences for entries named in this document (tags omitted). A change or cut given only in a name is not applied to a line headed by its entry.
UniProt P29275, whole entry: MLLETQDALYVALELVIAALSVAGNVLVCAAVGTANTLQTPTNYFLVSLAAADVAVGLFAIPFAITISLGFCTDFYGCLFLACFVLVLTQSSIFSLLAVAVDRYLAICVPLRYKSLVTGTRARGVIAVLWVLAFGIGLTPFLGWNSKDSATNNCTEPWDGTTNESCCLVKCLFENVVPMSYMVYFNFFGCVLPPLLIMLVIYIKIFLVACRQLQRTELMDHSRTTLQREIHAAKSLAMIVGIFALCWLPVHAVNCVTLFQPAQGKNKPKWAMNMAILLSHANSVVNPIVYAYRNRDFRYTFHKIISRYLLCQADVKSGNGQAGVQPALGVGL

Target: human A2B adenosine receptor (hA2BAR) (Homo sapiens, UniProt P29275)
Conditions: data from literature (footnotes c, f, h); cited from earlier work

COc1ccc(Cl)cc1CNc1ncnc2c1ncn2[C@@H]1O[C@H](CO)[C@@H](O)[C@H]1O
% Activation (hA2BAR) at 10 μM: 57%
